Laboratory results published in patent US20020037903A1, “Use of pyrimidine endothelin antagonists in companion animals” (priority 2000, published 2002).
“And” between values parts separate entries of the source, which are not always exact repeats. Equal entries are not always repeated.

Columns and labels:
[1] = tested on: ET-1-induced pressor response; assay: Test C: inhibition of ET-1-induced pressor response in conscious beagle dogs; type: in vivo
Description: Inhibition of ET-1-induced Pressor Response in Conscious Beagle Dogs
Studies were performed in surgically prepared conscious beagle dogs (13-17 kg) which were well adjusted to the laboratory environment. Surgical preparation was performed under recovery anaesthesia to insert an indwelling aortic catheter with external access between the scapulae and protruding subcutaneous ECG studs, positioned for the recording of lead 11 electrocardiograms. During studies dogs were placed, unrestrained, in “Pavlov” type slings. The aortic catheter was connected to a pressure transducer for the measurement of systemic arterial pressure and ECG studs, via patient cables, to a bio-amplifier for the recording of electrocardiograms. ET-1 was administered as a 15 min infusion (25 pmoles/kg/min) via a temporary catheter inserted into the saphenous vein. Test compound or placebo was administered by oral gavage (0.5 or 2.0 mg/kg) at 1 and 24 hours prior to the infusion of ET-1. Individual studies investigated no more than a single dose of test compound or placebo at any one time. Systemic arterial pressure and electrocardiograms were recorded for one hour prior to and one hour after the start of the infusion of ET-1. Test compounds were evaluated by comparing the effects of placebo or test compound on the magnitude of pressor response elicited by ET-1.

[2] = tested on: dog renal artery strips (ET-1-induced contraction); assay: Test A: inhibition of contraction induced by ET-1 in dog renal artery strips to generate Kb values; type: cell-based, beagle dogs; details: Canis lupus familiaris, 1.25 h, read-out: Apparent Kb
Excerpt: Inhibition of Contraction Induced by ET-1 in Dog Renal Artery Strips to Generate Kb Values
A Kb value is a measure of functional activity, and this is taken to be the free plasma concentration of a test compound required to provide efficacy.
Renal arteries from beagle dogs (body weight 9-15 kg) were cut into spirals and divided into 5 mm long strips. The side of each strip that was adjacent to the lumen of the vessel was gently rubbed to remove the endothelium. […] The tension generated by each strip was recorded isometrically. After incubating the tissues with test compound for 75 minutes, cumulative concentration response curves were constructed to ET-1 in the presence of 10 μM Bestatin, 10 μM Captopril, 10 μM Thiorphan, 50 μM indomethacin and 0.001% BSA. Only a single ET-1 curve was constructed in each tissue and tension increases expressed as a percentage of the response to 120mM KCl determined before the addition of the test compound. […] This is the ratio of the EC50 in the presence of the test compound divided by the EC50 in its absence. The DR is then put into the following equation:
apparent pKb=log(DR−1)−log[B] (where B=molar concentration of test compound)

[3] = Canis lupus familiaris, po, read-out: % inhibition of ET-1-induced pressor response

## COc1ccccc1Oc1c(NS(=O)(=O)C=Cc2ccccc2)nc(-c2ncccn2)nc1OC [COMPOUND Y, N-[6-methoxy-5-(2-methoxyphenoxy)-2-(2-pyrimidinyl)-4-pyrimidinyl]-2-phenylethensulphonamide]
[1]; [3]
  inhibition at 0.5 mg/kg: 57%
  inhibition at 2 mg/kg: 44%
[1]; dog, in vivo
  Change in arterial pressure elicited by ET-1: 7 ΔmmHg and 13 ΔmmHg
[2]
  Kb: 58 nM
